# Assay results from patent publication US20060057109A1 (priority 2002, published 2006).
# Tested on: caspase 8 and caspase 9 in CPA-treated 9L/P450 cells
# Assay: Caspase 8 and caspase 9 activity in extracts of CPA-treated cells
# Format: cell-based, rat
# Settings: IAP expressed by retroviral transduction, cells treated with 1 mM CPA
# Protocol: 9L/P450 cells were infected with retrovirus encoding the IAPs p35 or Survivin. IAP expression was verified by reverse transcriptase PCR (FIG. 1A). […] Shown in FIG. 1B are the caspase 8 and caspase 9 activities of the individual cell lines (mean+/−half the range for n=2 separate experiments).
# Floating and attached cells were collected, pooled, dissolved in lysis buffer (10 mM Hepes buffer (pH 7.4) containing 2 mM EDTA, 0.1% CHAPS detergent, 5 mM DTT, 350 ng/ml PMSF, 10 ng/ml pepstatin A, 10 ng/ml aprotinin, and 20 ng/ml leupeptin) and then subjected to three freeze-thaw cycles. Lysates were spun and the supernatant (cell extract) was assayed for caspase 3, 8 and 9 activities by incubation with caspase form-selective substrates: Ac-DEVD-AMC (Biomol; cat # P-411) for caspase 3 (Talanian et al., J Biol. Chem. 272:9677-9682 (1997); Thomberry et al., J Biol. Chem. 272:17907-17911 (1997)), LETD-AFC (BioRad; cat# 170-3186) for caspase 8 and Ac-LEHD-AFC (BioRad; cat# 170-3190) for caspase 9.
substance,measurement,value
"hIAP1: human IAP (inhibitor of apoptosis), myc-tagged cDNA, expressed by retroviral transduction",inhibition of caspase activity,less effective caspase inhibition
